From paper PMC7002685, “Inhibition of vascular calcification by inositol phosphates derivatized with ethylene glycol oligomers” (Nature Communications, 2020) come the findings set out here.

The test concerns transformation of CPP1 to CPP2 in pooled human serum. Briefly: In vitro serum calcification propensity (T50) screening assay. Type of test: biochemical. More on the design: key to T50: T50 in minutes (time to 50% CPP phase transition).
Where [1] appears, read: concentration 3 μM, one value per experiment.

Take `O=P1(O)OP(=O)(O)O[C@H]2[C@@H](O1)[C@@H]1OP(=O)(O)OP(=O)(O)O[C@H]1[C@@H]1OP(=O)(O)OP(=O)(O)O[C@@H]21` (racemic) [ITPP, myo-inositol trispyrophosphate]: the T50 (concentration 50 μM, one value per experiment) is on record as 340.55.

Take `CC(O)(P(=O)(O)O)P(=O)(O)O` [Etidronate, etidronate]: the T50 (concentration 10 μM, one value per experiment) was 341.133.

Regarding `COCCOCCOCCOCCOCCOCCOCCOCCOCCOCCOCCOCCO[C@@H]1[C@@H](OP(=O)(O)O)[C@H](OP(=O)(O)O)[C@@H](OP(=O)(O)O)[C@@H](OP(=O)(O)O)[C@H]1OP(=O)(O)O` (racemic) [OEG12-IP5, (±)-6-O-(methoxy-dodecaethyleneglycol)-myo-inositol-1,2,3,4,5-pentakis(phosphate)], the T50 (concentration 1.6 μM, one value per experiment) was 231.55.

Regarding `O[C@H]1[C@H](O)[C@@H](O)[C@H](O)[C@@H](O)[C@H]1O` [myo-Inositol, myo-inositol], the T50 runs as follows: (3 µM, individual experiments, Fig. 2a) 283.95 min; under setting [1], 283.95.

As for `COCCOCCOCCOCCOCCOCCOCCOCCOCCOCCOCCO[C@@H]1[C@@H](OS(=O)(=O)O)[C@H](OP(=O)(O)O)[C@@H](OS(=O)(=O)O)[C@@H](OP(=O)(O)O)[C@H]1OS(=O)(=O)O` (racemic) [OEG11-IP2S3, (±)-4-O-(methoxy-undecaethyleneglycol)-1,3,5-O-tris(sulfato)-myo-inositol-2,6-O-bis(phosphate)], the T50 is reported as 244.7 (concentration 1 μM, one value per experiment) and 232.433 under setting [1].

As to `O=P(O)(O)O[C@@H]1[C@H](OP(=O)(O)O)[C@H](OP(=O)(O)O)[C@@H](O)[C@H](OP(=O)(O)O)[C@H]1OP(=O)(O)O` [IP5, myo-Inositol-1,2,3,5,6-pentakisphosphate], the T50 under setting [1] worked out at 231.7.

For `NCCCC(O)(P(=O)(O)O)P(=O)(O)O` [Alendronate, alendronate], where the note is “one value per experiment (lab journal reference E05-E40)”, the “concentration upon which a T50 of 350 min is reached (c350), single experiment” value worked out at 11.4 µM.
